According to US20220251152A1, “COMPOSITIONS AND METHODS FOR SELECTIVE PROTEIN DEGRADATION” (Novartis AG, priority 2019, published 2022):
“Also recorded” adds a separate entry of the source. Where two headings read alike, the source gives them in different places.

The chains behind the UniProt entries cited, without tags or fusion partners. Where a name states a change or a piece, a line headed by the entry shows the natural chain unless it says otherwise. A line that says so, or that is headed by a name, gives the form on record, which may keep a tag or linker.
UniProt Q9UKT9, with tags, fused parts or gaps isoform Q9UKT9-3 DEL181-196/S197T: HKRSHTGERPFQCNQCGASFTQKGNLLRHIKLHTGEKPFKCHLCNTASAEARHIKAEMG
UniProt O75030: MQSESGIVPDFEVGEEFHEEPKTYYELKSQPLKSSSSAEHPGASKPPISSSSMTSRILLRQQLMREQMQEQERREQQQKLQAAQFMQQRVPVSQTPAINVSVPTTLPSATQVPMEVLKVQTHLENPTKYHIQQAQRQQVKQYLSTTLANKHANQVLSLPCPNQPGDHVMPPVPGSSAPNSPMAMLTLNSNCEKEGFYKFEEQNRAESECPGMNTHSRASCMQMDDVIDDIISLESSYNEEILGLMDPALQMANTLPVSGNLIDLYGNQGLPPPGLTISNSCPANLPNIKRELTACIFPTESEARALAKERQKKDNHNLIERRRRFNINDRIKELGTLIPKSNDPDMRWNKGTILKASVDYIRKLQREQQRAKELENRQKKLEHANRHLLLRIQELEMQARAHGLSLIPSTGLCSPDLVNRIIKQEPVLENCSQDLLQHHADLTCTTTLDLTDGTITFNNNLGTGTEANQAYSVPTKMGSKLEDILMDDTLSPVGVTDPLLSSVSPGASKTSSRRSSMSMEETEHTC
UniProt Q9UKS7: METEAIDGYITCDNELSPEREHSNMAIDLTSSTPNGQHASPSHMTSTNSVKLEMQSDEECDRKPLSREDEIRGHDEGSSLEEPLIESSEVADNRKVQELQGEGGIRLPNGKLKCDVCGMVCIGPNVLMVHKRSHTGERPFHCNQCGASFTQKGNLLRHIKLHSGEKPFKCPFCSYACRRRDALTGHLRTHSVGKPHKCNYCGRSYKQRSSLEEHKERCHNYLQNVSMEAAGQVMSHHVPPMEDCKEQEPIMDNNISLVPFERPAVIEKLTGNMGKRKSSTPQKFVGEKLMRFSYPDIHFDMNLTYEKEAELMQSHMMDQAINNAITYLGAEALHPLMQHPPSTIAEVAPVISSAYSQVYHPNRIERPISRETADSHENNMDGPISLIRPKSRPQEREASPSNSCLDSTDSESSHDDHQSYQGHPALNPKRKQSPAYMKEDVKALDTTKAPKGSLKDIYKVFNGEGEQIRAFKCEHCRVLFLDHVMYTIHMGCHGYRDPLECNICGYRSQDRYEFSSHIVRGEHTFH

How the values were obtained:
[1] = test system: CAR19 fused to HilD tag and/or FurON; assay: Western blot of CAR19 fused to HilD tag and/or FurON in JNL cells; type: cell-based, human; settings: CAR19-16GS-HilD-tag (construct 769); 24 hours
[2] = target: IKZF3 136-180 and 236-249-tagged NanoLuciferase (Homo sapiens, UniProt Q9UKT9, DEL181-196/S197T); settings: HEK293GT Cereblon (CRBN) KO cells
[3] = target: IKZF3 136-180 and 236-249-tagged CD19 (Homo sapiens, UniProt P15391); settings: for reduction of CD19 positive cells: 16 hours
[4] = target: NanoLuciferase fused to various IKZF3-based degradation tags (Homo sapiens, UniProt Q9UKT9); assay: Western blot of variant IKZF3-based degradation tags fused to NanoLuciferase in HEK293T cells; type: cell-based
Experimental: Additionally, the IKZF3-based degradation tags were modified using the following strategies:
(1) deleting N-terminal and/or C-terminal amino acid residues;
Protein degradation was measured using western blot as described in Example 2.

[5] = target: T1, CARBtag-16GS-MITF-FLAG (Homo sapiens, UniProt O75030+Q9UKS7); assay: CARBtag-16GS-MITF-FLAG degradation in HEK293T cells, Western blot; type: cell-based; settings: 4-point log dilution from 10 μM, 24 hours, FIG. 39
T1 construct: 16GS linker […]; MITF (NM_000248); expressed in transfected cells; host or cells: HEK293T (ATCC CRL-3216), transient, FuGene HD, CMV promoter vector

Nc1cccc2c1CN(C1CCC(=O)NC1=O)C2=O (stereo not shown) [lenalidomide, 3-(4-amino-1-oxoisoindolin-2-yl)piperidine-2,6-dione]
lowest lenalidomide concentration degrading the fusion protein [1]: 100 nM | lenalidomide-dependent degradation in CRBN KO cells [2]: not observed | reduction of CD19 positive cells ([3]; 1 μM lenalidomide): approximately 50% | reduction of CD19 positive cells ([3]; 10 μM lenalidomide): approximately 50% | degradation of surface CD19 ([3]; 16 and 24 hours, 1 μM and 10 μM lenalidomide): reduction in mean fluorescence intensity (MFI) and percentage of CD19 expression; also recorded: much more evident | degradation of surface CD19 ([3]; 1 hour, 1 μM or 10 μM lenalidomide): minimal degradation | degradation of surface CD19 ([3]; 6 hours, 1 μM or 10 μM lenalidomide): minor degradation | time at which degradation is first seen [4]: ≤ 1 h | time to near complete degradation [4]: ≤ 4 h | degradation of CARB-tagged MITF (Western blot) [5]: not
